Measurements reported in paper PMC10218254 (International Journal of Molecular Sciences, 2023).

Biological target: SARS-CoV-2 PL^pro (Severe acute respiratory syndrome coronavirus 2, UniProt P0DTD1)
Assay: cell-based

SMILES: COC(=O)/C=C/C(=O)NNC(=O)CCc1ccccc1C(=O)NC(C)c1cccc2ccccc12 (stereo not shown) [compound 3, reference compound]
- EC50: 2970 nM
